In BindingDB's records for doi:10.1016/0014-2999(96)00088-x (University Clinic For Psychiatry, 1996):
Where “and” joins values, the source holds several entries; their conditions need not be identical. Equal values may be shown once.

By UniProt entry, the sequences of proteins in these tests, tags left out.
UniProt P48169, whole entry: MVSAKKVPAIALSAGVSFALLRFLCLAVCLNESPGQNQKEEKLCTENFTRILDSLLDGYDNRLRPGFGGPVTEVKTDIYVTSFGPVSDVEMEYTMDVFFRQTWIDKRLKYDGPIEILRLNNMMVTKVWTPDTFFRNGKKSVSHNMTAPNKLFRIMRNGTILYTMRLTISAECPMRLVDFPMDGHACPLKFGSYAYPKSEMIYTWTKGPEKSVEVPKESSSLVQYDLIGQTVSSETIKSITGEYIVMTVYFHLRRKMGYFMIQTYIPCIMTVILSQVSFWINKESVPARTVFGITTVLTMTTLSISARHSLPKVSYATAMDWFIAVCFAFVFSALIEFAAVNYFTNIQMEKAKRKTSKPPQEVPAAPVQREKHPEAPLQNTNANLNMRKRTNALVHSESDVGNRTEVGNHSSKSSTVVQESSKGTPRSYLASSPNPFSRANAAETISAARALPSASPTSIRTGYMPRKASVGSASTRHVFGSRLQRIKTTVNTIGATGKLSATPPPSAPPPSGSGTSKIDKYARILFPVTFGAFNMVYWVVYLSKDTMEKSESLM

Biological target: Gamma-aminobutyric acid receptor subunit alpha-4 (Homo sapiens, UniProt P48169)

Q: For `CCOC(=O)c1cc2c(cn1)[nH]c1ccccc12`, which Ki is on record?
A: Its Ki is 693 nM.

Q: Which Ki does the source give for `CCOC(=O)c1ncn2c1CN(C)C(=O)c1cc(N=[N+]=[N-])ccc1-2` [RO-154513] here?
A: Its Ki is 5.5 nM and 10.5 nM.
